Target: T1, Tyrosine-protein phosphatase non-receptor type 1 (Homo sapiens, UniProt P18031)
T1 sequence (P18031 whole entry): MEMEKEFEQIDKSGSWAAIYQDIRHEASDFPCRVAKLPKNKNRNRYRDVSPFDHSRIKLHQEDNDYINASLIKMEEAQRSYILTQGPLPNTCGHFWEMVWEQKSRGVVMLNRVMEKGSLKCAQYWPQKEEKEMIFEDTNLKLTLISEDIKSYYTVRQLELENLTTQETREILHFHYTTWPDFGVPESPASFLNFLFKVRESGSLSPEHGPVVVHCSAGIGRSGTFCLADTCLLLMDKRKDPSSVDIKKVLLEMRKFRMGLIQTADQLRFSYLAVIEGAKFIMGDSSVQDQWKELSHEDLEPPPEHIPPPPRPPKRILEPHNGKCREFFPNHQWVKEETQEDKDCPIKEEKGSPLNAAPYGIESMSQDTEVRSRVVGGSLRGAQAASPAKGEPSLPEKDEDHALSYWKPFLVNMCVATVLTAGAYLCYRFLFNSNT
Test: Inhibition of PTP1B

IC50: 4.8 µM
SMILES: CNC(=O)[C@@H]1Cc2ccc(NS(=O)(=O)O)cc2CN1C(=O)CCc1cccc(NS(=O)(=O)O)c1
